Assay results as given in PubChem BioAssay AID743279 (National Center for Advancing Translational Sciences (NCATS), 2014).
The list shows a part of the results, in another mix than the full data. Results filed as inconclusive are left out. Calls of active or inactive are those of the source. Rule as the data show it: active = activity change below about -50%; inconclusive = mostly about -30% to -49%; inactive = weaker than that.

test: qHTS for Inhibitors of Inflammasome Signaling: IL-1-beta AlphaLISA Primary Screen; conditions: THP-1 LPS/ATP IL-1B secretion, 16 h, at 57.5 µM, stronger effect = lower value
Description: Inflammasomes are a set of intracellular multi-protein complexes that enable autocatalytic activation of inflammatory caspases and drive the innate immune response to counter harmful agents. […] A qHTS assay, based on AlphaLISA technology, was developed to screen the Molecular Libraries Small Molecule Repository (MLSMR) to look for novel inflammasome inhibitors. The assay detects IL-1B using AlphaLISA anti-IL-1B acceptor and donor beads. A decreased emission signal, indicating reduced IL-1B secretion, is the desired outcome for this assay. NIH Chemical Genomics Center [NCGC] NIH Molecular Libraries Probe Centers Network [MLPCN] MLPCN Grant: MH095513 Assay Provider: Shyam Biswal Ph.D., Johns Hopkins University Immunity. 2012 Jul 27;37(1):85-95. PMID: 22819042 [2] Curr Pharm Des. 2012;18(16):2320-8. PMID: 22390695
Three microliters containing 3000 THP-1 cells were dispensed into the wells of solid, white, tissue culture treated Greiner 1,536-well plates. Library compounds and positive control, Glyburide, were pin-transferred (23 nL) by a Kalypsys pin-tool equipped with a 1,536-pin array, resulting in final compound concentration ranges of 2.5 nM to 57.5 uM. […] The AlphaLISA signal was read by a PerkinElmer EnVision plate reader with an ultrasensitive luminescence detector and 1536 Plate HTS AlphaScreen aperture (excitation of 680nm and emission of 615nm).
% is scaled to controls: 0 for no effect and ±100 for the full control effect.

SMILES	activity change
CCC(=O)N(c1ccccc1)C1(COC)CCN(CCn2nnn(CC)c2=O)CC1	inactive: 11.3%
CCC(=O)N(c1ccccc1)C1(COC)CCN(CCc2cccs2)CC1	inactive: -21.6%
